Legend:
[1] = test system: female diet-induced obese (DIO) C57BL/6 mice; experiment: Chronic effect on body weight, body fat and food consumption in female DIO mice; type: in vivo; settings: 50 μg/kg bid s.c.; for Body fat change: NMR; for Body fat change / Overall weight change: mean ± SEM; for daily body weight compared to vehicle DIO control mice / day on which significant body weight decrease begins: Example 7, 4 weeks; for day on which significant body weight decrease begins: continuing through end of study
Description: (§1) C57BL/6 Harlan mice are housed in groups in a specific pathogen-free barrier facility on a 12 h light/dark cycle with free access to water and standard or high-fat diet. After 16 weeks of prefeeding on high-fat diet, mice are stratified to treatment groups (n=8), so that each group has similar mean body weight. An age-matched group with ad-libitum access to standard chow is included as standard control group. Prior to the start of treatment, mice are subcutaneously (s.c.) injected with vehicle solution and weighed for 3 days to acclimate them to the procedures.
Body weight is recorded daily. Two days before start of treatment and on day 26, total fat mass is measured by nuclear magnetic resonance (NMR).
(§2) Statistical analyses are performed with Everstat 6.0 by repeated measures two-way ANOVA and Dunnetts post-hoc analyses (glucose profile) and 1-way-ANOVA, followed by Dunnetts post-hoc test (body weight, body fat). Differences versus vehicle-treated DIO control mice are considered statistically significant at the p<0.05 level.
Body weight was recorded daily, and body fat content was determined before the start and after 4 weeks of treatment.
Body weight and food consumption were recorded daily.

[2] = Solubility in buffer with m-cresol, UPLC-UV; type: physicochemical; settings: 2.7 mg/ml m-cresol
Description: Prior to the solubility and stability measurement of a peptide batch, its purity was determined through UPLC/MS.
Therefore solutions from solid samples were prepared in two different buffer systems with a concentration of 10 mg/mL compound based on the previously determined % purity:
a) Acetate Buffer pH 4.5, 100 mM sodium acetate trihydrate, 2.7 mg/ml m-cresol
b) Phosphate Buffer pH 7.4, 100 mM sodium hydrogen phosphate, 2.7 mg/ml m-cresol
UPLC-UV was performed after 2 hours of gentle agitation from the supernatant, which was obtained after 20 min of centrifugation at 3000 RCF (relative centrifugal acceleration).
The standards are dilutions (by injecting various volumes ranging from 0.2-2 μl) of the DMSO stock solution of the peptide at a concentration of 1.2 mg/mL (based on % purity). The sample also served as starting point (t0) for the stability testing.

[3] = test system: female diet-induced obese (DIO) C57BL/6 mice; experiment: Acute effect on blood glucose in fed female DIO mice; type: in vivo; settings: Example 7; 50 μg/kg s.c.; t=1, 2, 3, 4, 6 and 24 h post dosing
Description: as §1
The volume of administration is 5 mL/kg. The animals have access to water and their corresponding diet during the experiment. Blood glucose levels are measured at t=0 h, t=1 h, t=2 h, t=3 h, t=4 h, t=6 h and t=24 h (method: Accu-Check glucometer). Blood sampling is performed by tail incision without anaesthesia.
as §2
At predefined time points, more blood samples were taken to measure blood glucose and generate the blood glucose profile over 24 h.

[4] = acetate buffer with m-cresol, pH 4.5, acetate buffer
[5] = phosphate buffer with m-cresol, pH 7.4, phosphate buffer

Row | SMILES | Body fat change ([1]; 4-week treatment) | Overall weight change ([1]; 4-week treatment) | daily body weight compared to vehicle DIO control mice [1] | day on which significant body weight decrease begins [1] | solubility at 2 h [2, 4] | solubility at 2 h [2, 5] | blood glucose compared to DIO control mice [3] | Overall weight change ([1]; 2-week treatment)
1 | CCCCCCCCCCCCCCCC(=O)N[C@@H](CCC(=O)N[C@@H](CCC(=O)NCCCC[C@H](NC(=O)[C@H](CCC(N)=O)NC(=O)[C@H](CCCCN)NC(=O)[C@H](CO)NC(=O)[C@H](CC(C)C)NC(=O)[C@H](CC(=O)O)NC(=O)[C@H](CO)NC(=O)[C@@H](NC(=O)[C@H](Cc1ccccc1)NC(=O)[C@@H](NC(=O)CNC(=O)[C@H](CCC(N)=O)NC(=O)C(C)(C)NC(=O)[C@@H](N)Cc1c[nH]cn1)[C@@H](C)O)[C@@H](C)O)C(=O)N[C@@H](CC(=O)O)C(=O)N[C@@H](CCC(=O)O)C(=O)N[C@@H](CCC(N)=O)C(=O)N[C@@H](CCCNC(=N)N)C(=O)N[C@@H](C)C(=O)N[C@@H](CCCCN)C(=O)N[C@@H](CC(C)C)C(=O)N[C@@H](Cc1ccccc1)C(=O)N[C@H](C(=O)N[C@@H](CCC(=O)O)C(=O)N[C@@H](Cc1c[nH]c2ccccc12)C(=O)N[C@@H](CC(C)C)C(=O)NC(C)(C)C(=O)N[C@@H](C)C(=O)NCC(=O)NCC(=O)N1CCC[C@H]1C(=O)N1CCC[C@H]1C(=O)N[C@@H](CO)C(=O)NC(C)(C)C(=O)N[C@@H](CCCCN)C(=O)N1CCC[C@H]1C(=O)N1CCC[C@H]1C(=O)N1CCC[C@H]1C(=O)N[C@@H](CCCCN)C(N)=O)[C@@H](C)CC)C(=O)O)C(=O)O [SEQ ID NO: 7, H-Aib-Q-G-T-F-T-S-D-L-S-K-Q-K[gGlu-gGlu-Palm]-D-E-Q-R-A-K-L-F-I-E-W-L-Aib-A-G-G-P-P-S-Aib-K-P-P-P-K-NH2] | -3.83 ± 1.38 g | -8.45 ± 3.2 g | reduced body weight significantly | 5 days | > 7000 µg/mL | > 7000 µg/mL | significant decrease in blood glucose | 
2 | CCCCCCCCCCCCCCCC(=O)N[C@@H](CCC(=O)N[C@@H](CCC(=O)NCCCC[C@H](NC(=O)[C@H](CCC(N)=O)NC(=O)[C@H](CCCCN)NC(=O)[C@H](CO)NC(=O)[C@H](CC(C)C)NC(=O)[C@H](CC(=O)O)NC(=O)[C@H](CO)NC(=O)[C@@H](NC(=O)[C@H](Cc1ccccc1)NC(=O)[C@@H](NC(=O)CNC(=O)[C@H](CCC(N)=O)NC(=O)C(C)(C)NC(=O)[C@@H](N)Cc1c[nH]cn1)[C@@H](C)O)[C@@H](C)O)C(=O)N[C@@H](CC(=O)O)C(=O)N[C@@H](CCC(=O)O)C(=O)N[C@@H](CCC(N)=O)C(=O)N[C@@H](CCCNC(=N)N)C(=O)N[C@@H](C)C(=O)N[C@@H](CCCCN)C(=O)N[C@@H](CC(C)C)C(=O)N[C@@H](Cc1ccccc1)C(=O)N[C@H](C(=O)N[C@@H](CCC(=O)O)C(=O)N[C@@H](Cc1c[nH]c2ccccc12)C(=O)N[C@@H](CC(C)C)C(=O)NC(C)(C)C(=O)N[C@@H](C)C(=O)N[C@H](C)C(=O)NCC(=O)N1CCC[C@H]1C(=O)N1CCC[C@H]1C(=O)N[C@@H](CO)C(=O)NC(C)(C)C(=O)N[C@@H](CCCCN)C(=O)N1CCC[C@H]1C(=O)N1CCC[C@H]1C(=O)N1CCC[C@H]1C(=O)N[C@@H](CCCCN)C(N)=O)[C@@H](C)CC)C(=O)O)C(=O)O [SEQ ID NO: 6, H-Aib-Q-G-T-F-T-S-D-L-S-K-Q-K[gGlu-gGlu-Palm]-D-E-Q-R-A-K-L-F-I-E-W-L-Aib-A-dAla-G-P-P-S-Aib-K-P-P-P-K-NH2] | -4.44 ± 0.47 g | -11.71 ± 1.45 g | statistically significant decrease | 7 days | > 7000 µg/mL |  | significant decrease in blood glucose | 
3 | CCCCCCCCCCCCCCCCCC(=O)N[C@@H](CCC(=O)NCCCC[C@H](NC(=O)[C@H](CCC(N)=O)NC(=O)[C@H](CCCCN)NC(=O)[C@H](CO)NC(=O)[C@H](CC(C)C)NC(=O)[C@H](CC(=O)O)NC(=O)[C@H](CO)NC(=O)[C@@H](NC(=O)[C@H](Cc1ccccc1)NC(=O)[C@@H](NC(=O)CNC(=O)[C@H](CCC(N)=O)NC(=O)C(C)(C)NC(=O)[C@@H](N)Cc1c[nH]cn1)[C@@H](C)O)[C@@H](C)O)C(=O)N[C@@H](CC(=O)O)C(=O)N[C@@H](CCC(=O)O)C(=O)N[C@@H](CCC(N)=O)C(=O)N[C@@H](CCCNC(=N)N)C(=O)N[C@@H](C)C(=O)N[C@@H](CCCCN)C(=O)N[C@@H](CC(C)C)C(=O)N[C@@H](Cc1ccccc1)C(=O)N[C@H](C(=O)N[C@@H](CCC(=O)O)C(=O)N[C@@H](Cc1c[nH]c2ccccc12)C(=O)N[C@@H](CC(C)C)C(=O)NC(C)(C)C(=O)N[C@@H](C)C(=O)NCC(=O)NCC(=O)N1CCC[C@H]1C(=O)N1CCC[C@H]1C(=O)N[C@@H](CO)C(=O)NC(C)(C)C(=O)N[C@@H](CCCCN)C(=O)N1CCC[C@H]1C(=O)N1CCC[C@H]1C(=O)N1CCC[C@H]1C(=O)N[C@@H](CCCCN)C(N)=O)[C@@H](C)CC)C(=O)O [SEQ ID NO: 9, H-Aib-Q-G-T-F-T-S-D-L-S-K-Q-K[gGlu-Stea]-D-E-Q-R-A-K-L-F-I-E-W-L-Aib-A-G-G-P-P-S-Aib-K-P-P-P-K-NH2] |  |  |  |  |  |  |  | -2.5 ± 0.2 g
4 | CCCCCCCCCCCCCCCC(=O)N[C@@H](CCC(=O)N[C@@H](CCC(=O)NCCCC[C@H](NC(=O)[C@H](CCC(N)=O)NC(=O)[C@H](CCCCN)NC(=O)[C@H](CO)NC(=O)[C@H](CC(C)C)NC(=O)[C@H](CC(=O)O)NC(=O)[C@H](CO)NC(=O)[C@@H](NC(=O)[C@H](Cc1ccccc1)NC(=O)[C@@H](NC(=O)CNC(=O)[C@H](CCC(N)=O)NC(=O)C(C)(C)NC(=O)[C@@H](N)Cc1c[nH]cn1)[C@@H](C)O)[C@@H](C)O)C(=O)N[C@@H](CC(=O)O)C(=O)N[C@@H](CCC(=O)O)C(=O)N[C@@H](CCC(N)=O)C(=O)N[C@@H](CCCNC(=N)N)C(=O)N[C@@H](C)C(=O)N[C@@H](CCCCN)C(=O)N[C@@H](CC(C)C)C(=O)N[C@@H](Cc1ccccc1)C(=O)N[C@H](C(=O)N[C@@H](CCC(=O)O)C(=O)N[C@@H](Cc1c[nH]c2ccccc12)C(=O)N[C@@H](CC(C)C)C(=O)NC(C)(C)C(=O)N[C@@H](CCCCN)C(=O)NCC(=O)NCC(=O)N1CCC[C@H]1C(=O)N1CCC[C@H]1C(=O)N[C@@H](CO)C(=O)NC(C)(C)C(=O)N[C@@H](CCCCN)C(=O)N1CCC[C@H]1C(=O)N1CCC[C@H]1C(=O)N1CCC[C@H]1C(=O)N[C@@H](CCCCN)C(N)=O)[C@@H](C)CC)C(=O)O)C(=O)O [SEQ ID NO: 8, H-Aib-Q-G-T-F-T-S-D-L-S-K-Q-K[gGlu-gGlu-Palm]-D-E-Q-R-A-K-L-F-I-E-W-L-Aib-K-G-G-P-P-S-Aib-K-P-P-P-K-NH2] |  |  |  |  | > 7000 µg/mL | > 7000 µg/mL |  | -1.66 ± 0.5 g
5 | CCCCCCCCCCCCCCCC(=O)N[C@@H](CCC(=O)N[C@@H](CCC(=O)NCCCC[C@H](NC(=O)[C@H](CCC(N)=O)NC(=O)[C@H](CCCCN)NC(=O)[C@H](CO)NC(=O)[C@H](CC(C)C)NC(=O)[C@H](CC(=O)O)NC(=O)[C@H](CO)NC(=O)[C@@H](NC(=O)[C@H](Cc1ccccc1)NC(=O)[C@@H](NC(=O)CNC(=O)[C@H](CCC(N)=O)NC(=O)C(C)(C)NC(=O)[C@@H](N)Cc1c[nH]cn1)[C@@H](C)O)[C@@H](C)O)C(=O)N[C@@H](CC(=O)O)C(=O)N[C@@H](CCC(=O)O)C(=O)N[C@@H](CCC(N)=O)C(=O)N[C@@H](CCCNC(=N)N)C(=O)N[C@@H](C)C(=O)N[C@@H](CCCCN)C(=O)N[C@@H](CC(C)C)C(=O)N[C@@H](Cc1ccccc1)C(=O)N[C@H](C(=O)N[C@@H](CCC(=O)O)C(=O)N[C@@H](Cc1c[nH]c2ccccc12)C(=O)N[C@@H](CC(C)C)C(=O)NC(C)(C)C(=O)N[C@@H](CO)C(=O)NCC(=O)NCC(=O)N1CCC[C@H]1C(=O)N1CCC[C@H]1C(=O)N[C@@H](CO)C(=O)NC(C)(C)C(=O)N[C@@H](CCCCN)C(=O)N1CCC[C@H]1C(=O)N1CCC[C@H]1C(=O)N1CCC[C@H]1C(=O)N[C@@H](CCCCN)C(N)=O)[C@@H](C)CC)C(=O)O)C(=O)O [SEQ ID NO: 15, H-Aib-Q-G-T-F-T-S-D-L-S-K-Q-K[gGlu-gGlu-Palm]-D-E-Q-R-A-K-L-F-I-E-W-L-Aib-S-G-G-P-P-S-Aib-K-P-P-P-K-NH2] |  |  |  |  |  |  |  | -2.6 ± 0.5 g

Reference: patent publication US20170008944A1 (priority 2015, published 2017)
